4 substances from patent US20230338564A1, “NEODEGRADER CONJUGATES” (Orum Therapeutics, Inc., priority 2020, published 2023) can be followed below.

Format in all cases: cell-based
Assay [1] has as its system SK-BR-3 breast cancer cell line. Kind of assay: In vitro antiproliferation assay, General Procedure 1 (WST-8). The note with it: for IC50: Breast, conjugates DAR 8. The protocol:
(§1) The ability of neoDegrader conjugates to inhibit cell growth was measured using in vitro anti-proliferation assay. […] Conjugates were diluted in complete cell growth medium using 4-fold serial dilutions and 100 µL was added per well. […] Viability of remaining cells was determined by colorimetric WST-8 assay (Dojindo Molecular Technologies, Inc., Rockville, MD, US). WST-8 was added to 10% of the final volume and plates were incubated at 37° C. in a humidified 5% CO2 incubator for 2-4 hours. Plates were analyzed by measuring the absorbance at 450 nm (A450) in a multi-well plate reader. Background A450 absorbance of wells with media and WST-8 only was subtracted from all values. The percent viability was calculated by dividing each treated sample value by the average value of wells with untreated cells. The percent viability value was plotted against the test sample concentration in a semi-log plot for each treatment. IC50 values were calculated automatically.

The subject of another assay is AU565 cell line. Kind of assay: In vitro antiproliferation assay, General Procedure 2 (CCK-8). Particulars: breast, adenocarcinoma. The source says: (§2) Cell Culture: Cell lines were obtained from the American Type Culture Collection (ATCC, Manassas, VA, USA) or Deutsche Sammlung von Mikroorganismen und Zellkulturen (DSMZ, Braunschweig, Germany) and maintained according to the culturing conditions specified by ATCC or DSMZ. Cells were thawed out and maintained in culture for at least two passages before proceeding with experimental conditions.
(§3) Cytotoxicity assays: For adherent cell lines, the cells were dissociated with enzyme-free PBS-based cell dissociation buffer (Gibco, USA) and plated on tissue culture treated 96-well flat bottom polystyrene plates (Costar, Corning, USA) at appropriate cell densities depending on doubling time of the cells. 18 hours after plating, cells were treated with test articles at appropriate concentrations starting at 100 nM and diluted in 4-fold serial dilutions. For suspension cell lines, the cells were seeded on the same day of treatment and cells were treated as described above. Adherent cells were treated for 5 days and suspension cells were treated for 3 days. Cell proliferation was assessed using the Cell Counting Kit-8 (CCK-8, Dojindo Laboratories, Japan) and measurements were obtained using the Promega GloMax Discover plate reader (Promega, USA). Data were analyzed using GraphPad Prism software (GraphPad Software, San Diego, CA). All data points were obtained from technical triplicates and the experiments were validated using three biological replicates.

In another assay the test system is HCC1569 cell line. The description is as above. The note with it: breast, primary metaplastic carcinoma.
Source text: as §2, §3

The next assay concerns HCC2218 cell line. The description is as above. The note with it: breast, primary ductal carcinoma.
Source text: as §2, §3

The subject of another assay is MDA-MB-361 cell line. The description is as above. Particulars: breast, adenocarcinoma.
Source text: as §2, §3

In the next assay the test system is NCI-N87 cell line. Described as above. The note with it: stomach, gastric carcinoma.
Source text: as §2, §3

The test system of another assay is SK-BR-3 cell line. Described as above. The note with it: breast, adenocarcinoma (pleural effusion).
Source text: as §2, §3

In a further assay the test system is ZR-75-30 cell line. Described as above. Particulars: breast, ductal carcinoma.
Source text: as §2, §3

The test system of assay [2] is NCI-N87 gastric cancer cell line. Nature of the assay: In vitro antiproliferation assay, General Procedure 1 (WST-8). Particulars: NCI-N87 cells; neoDegrader conjugates (DAR 8) versus comparators; FIGS. 16 and 17. The method, then: as §1
A further assay has as its system Daudi lymphoma cell line. Described as above. The note with it: Daudi cells; rituximab neoDegrader conjugates versus comparators; FIGS. 14 and 15. The protocol:
as §1

Assay [3] concerns Ramos (non-Hodgkins lymphoma) cell line. Described as above. The note with it: Ramos cells; rituximab neoDegrader conjugates versus comparators; FIG. 13. The protocol:
as §1

Assay [4] concerns HL-60 (acute myeloid leukemia) cell line. The assay is described as above. The note with it: HL-60 cells; neoDegrader conjugates versus comparators; FIGS. 9-12. The protocol:
The ability of neoDegrader conjugates to inhibit cell growth was measured using in vitro anti-proliferation assay. Target cells were plated at 1,500 - 5,000 cells per well in 100 µL complete cell growth medium (RPMI 1640, 10% fetal bovine serum and 1% Penicillin-streptomycin for most cell lines; Hybri-care medium, 1.5 g/L sodium bicarbonate, 10% fetal bovine serum and 1% Penicillin-streptomycin for BT-474; RPMI 1640, 20% fetal bovine serum and 1% Penicillin-streptomycin for HL-60). Conjugates were diluted in complete cell growth medium using 4-fold serial dilutions and 100 µL was added per well. The final concentration typically ranged from 1 × 10^-8 M to 1.53 × 10^-13 M or 1 × 10^-7 M to 1.53 × 10^-12 M. Cells were incubated at 37° C. in a humidified 5% CO2 incubator for 5 days. Viability of remaining cells was determined by colorimetric WST-8 assay (Dojindo Molecular Technologies, Inc., Rockville, MD, US). WST-8 was added to 10% of the final volume and plates were incubated at 37° C. in a humidified 5% CO2 incubator for 2-4 hours. Plates were analyzed by measuring the absorbance at 450 nm (A450) in a multi-well plate reader. Background A450 absorbance of wells with media and WST-8 only was subtracted from all values. The percent viability was calculated by dividing each treated sample value by the average value of wells with untreated cells. […] IC50 values were calculated automatically.

In assay [1], “Kadcyla: antibody drug conjugate Kadcyla [reference compound]” showed a half-inhibitory concentration (IC50) of 0.008 nM.
For Enhertu [reference compound], the IC50 with AU565 cell line was 0.559 nM; in the assay on HCC1569 cell line, 0.837 nM; in the assay with HCC2218 cell line it was 4.36 nM; in the assay with MDA-MB-361 cell line, 4.74 nM; in the assay on NCI-N87 cell line it was 0.882 nM; in the assay with SK-BR-3 cell line, 0.753 nM. This substance yielded an IC50 with ZR-75-30 cell line of 9.42 nM.
Consider Trastuzumab [reference compound], for which the “anti-proliferative activity compared, in words” value is “significantly less active” in assay [2]; “significantly less active” in assay [1] (SK-BR-3 cells, neoDegrader conjugates (DAR 8) versus comparators, FIGS. 7 and 8). Further, the midpoint of inhibition in assay [1], the IC50, lay at 0.086 nM.
With Trastuzumab-Compound (Ia), the “antiproliferative activity compared, in words” value is “less active” in the assay on Daudi lymphoma cell line, “less active” in assay [3] and “significantly less active” in assay [4]. The IC50 in assay [1] came to 0.015 nM.
